{"source": "the supplement of paper PMC8007513", "system": "Trichoderma virens ATCC 9645", "experiment": "growth yield (OD600) with compound + IPBC relative to untreated control; higher = less growth inhibition", "details": "compound concentration: 100 uM, IPBC concentration: 200 ng/ml", "method_in_brief": "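Plates were read for OD600 at 40 h and 72 h after Trichoderma virens ATCC 9645 spores (15,000 spores ml^−1 in potato dextrose broth) were grown at 30 °C with library compounds at 100 μM final, with or without a biocide at 200 ng ml^−1. Growth is stated relative to the control with neither agent, as the mean of duplicate screens.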", "note": "± gives the standard error. This is a selection; strong and weak results do not stand in their true shares.", "data": [{"smiles": "COc1cc(Br)c(C[N+]2(CCOCCC3CCC4CC3C4(C)C)CCOCC2)cc1OC", "note": "(configuration not stated) [Pinaverium bromide] + CCCCNC(=O)OCC#CI [3-iodo-2-propynyl butylcarbamate (IPBC)]", "values": [{"measurement": "growth yield", "setting": "40 h", "value": "3.02 ± 0.16", "unit": "%"}, {"measurement": "growth yield", "setting": "72 h", "value": 2.52, "unit": "%"}]}]}
